What was measured:
CypA [1] = target: T1, CypA (Homo sapiens, UniProt P62937); assay: PPIase activity assay (IC50 determination); assay type: biochemical; settings: PPIase activity of CypA, 4 nM CypA
IL-2 = IL-2 ELISA of activated PBMC supernatants; settings: activated PBMCs
CypA [2] = target: T1, CypA; assay: CypA degradation in CD3/CD28-activated PBMCs (western blot); assay type: cell-based
IFN-γ = IFN-γ ELISA of activated PBMC supernatants; settings: activated PBMCs
PBMCs = assay: PBMC toxicity assessment by FACS (Annexin V / 7-AAD); settings: daily 1 µM for four days
cellular CypA = assay: PPIase activity of the cell lysate of treated PBMCs; settings: PBMC lysate, daily administration of 1 µM for four days versus single treatment
CypA [3] = target: T1, CypA; assay: Degradation of CypA in HDFn fibroblasts (western blot); assay type: cell-based; settings: 8 h and 24 h
[4] = daily treatment with 1 µM for four days

Amino acid sequences for entries named in this document (tags omitted).
UniProt P62937, whole entry: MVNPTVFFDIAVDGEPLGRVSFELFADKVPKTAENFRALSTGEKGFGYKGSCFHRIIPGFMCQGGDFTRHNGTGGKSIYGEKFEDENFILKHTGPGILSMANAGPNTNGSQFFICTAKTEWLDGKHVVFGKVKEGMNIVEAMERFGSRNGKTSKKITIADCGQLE

IC50 (CypA [1]) [nM] | CypA degradation in activated PBMCs (CypA [2]; five healthy donors, single treatment) | CypA degradation in fibroblasts (CypA [3]) | Compound | production of IL-2 (IL-2; [4]) | production of IL-2 (IL-2; single treatment with 1 µM) | CypA degradation in activated PBMCs (CypA [2]; daily administration of 1 µM for four days versus single treatment) | production of IFN-γ (IFN-γ; [4]) | production of IFN-γ (IFN-γ; single treatment with 1 µM) | percentage of apoptotic and necrotic cells compared to the DMSO control (PBMCs) | cytosolic PPIase activity (cellular CypA)
7.73 | – | – | CC[C@@H]1NC(=O)[C@H]([C@H](O)[C@H](C)CCCCCC(=O)NCCOCCOCCOCCOCCC(=O)Nc2cccc3c2C(=O)N(C2CCC(=O)NC2=O)C3=O)N(C)C(=O)[C@H](C(C)C)N(C)C(=O)[C@H](CC(C)C)N(C)C(=O)[C@H](CC(C)C)N(C)C(=O)[C@@H](C)NC(=O)[C@H](C)NC(=O)[C@H](CC(C)C)N(C)C(=O)[C@H](C(C)C)NC(=O)[C@H](CC(C)C)N(C)C(=O)CN(C)C1=O (stereo partly shown) | – | – | – | – | – | – | –
– | induced the degradation of CypA | best PROTACs in fibroblasts | CC[C@@H]1NC(=O)[C@H]([C@H](O)[C@H](C)CCCCCC(=O)NCCOCCOCCOCCOCCC(=O)N[C@H](C(=O)N2C[C@H](O)C[C@H]2C(=O)NCc2ccc(-c3scnc3C)cc2)C(C)(C)C)N(C)C(=O)[C@H](C(C)C)N(C)C(=O)[C@H](CC(C)C)N(C)C(=O)[C@H](CC(C)C)N(C)C(=O)[C@@H](C)NC(=O)[C@H](C)NC(=O)[C@H](CC(C)C)N(C)C(=O)[C@H](C(C)C)NC(=O)[C@H](CC(C)C)N(C)C(=O)CN(C)C1=O | neither a single treatment with 1 µM P3 nor the daily treatment with 1 µM P3 for four days affected the production of IFN-γ and IL-2 | neither a single treatment with 1 µM P3 nor the daily treatment with 1 µM P3 for four days affected the production of IFN-γ and IL-2 | did not cause further degradation of the protein | neither a single treatment with 1 µM P3 nor the daily treatment with 1 µM P3 for four days affected the production of IFN-γ and IL-2 | neither a single treatment with 1 µM P3 nor the daily treatment with 1 µM P3 for four days affected the production of IFN-γ and IL-2 | almost no difference | further reduction in cytosolic PPIase activity
